This is an account of results in patent US9296745B2, “Diacylglycerol acyltransferase 2 inhibitors” (Pfizer Inc., priority 2012, dated 2016).

By UniProt entry, the sequences of proteins in these tests, tags left out. Where a name states a change or a piece, a line headed by the entry shows the natural chain unless it says otherwise.
UniProt Q96PD7: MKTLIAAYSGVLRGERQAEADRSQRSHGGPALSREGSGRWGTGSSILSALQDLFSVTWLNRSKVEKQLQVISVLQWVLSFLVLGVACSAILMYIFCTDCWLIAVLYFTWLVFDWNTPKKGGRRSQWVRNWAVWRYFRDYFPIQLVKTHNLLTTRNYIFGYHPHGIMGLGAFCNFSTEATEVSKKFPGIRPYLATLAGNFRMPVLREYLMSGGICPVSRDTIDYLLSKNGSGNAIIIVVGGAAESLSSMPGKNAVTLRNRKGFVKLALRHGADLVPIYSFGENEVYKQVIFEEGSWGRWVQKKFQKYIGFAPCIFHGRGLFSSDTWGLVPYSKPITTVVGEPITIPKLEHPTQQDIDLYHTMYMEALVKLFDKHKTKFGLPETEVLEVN

What is called IC50 is the concentration that gives 50% inhibition.

Where two headings read alike, the source gives them in different places.

The target of one experiment is Human DGAT2 (hDGAT2) (Homo sapiens (Human), UniProt Q96PD7). Briefly: In vitro DGAT2 assay, IC50 determination with hDGAT2 membrane fraction. To be noted: geometric mean. The experiment is classed as biochemical. The protocol: Recombinant baculovirus for the FLAG-tagged hDGAT2 was generated in SF9 insect cells using Bac-to-Bac baculovirus expression system (Invitrogen) according to the manufacturer's protocol. For the expression of hDGAT2, SF9 cells (20 L) grown in Sf900II media were infected with hDGAT2 baculovirus at a multiplicity of infection of 1 in a Wave Bioreactor System 20/50P wave bag (GE Healthcare). After 40 hours of infection, the cells were then harvested by centrifugation at 5,000×g. The cell pellets were washed by resuspending in phosphate buffered saline (PBS) and collected by centrifugation at 5,000×g. The cell paste was flash frozen in liquid N2 and stored at −80° C. until needed. All operations below were at 4° C. unless otherwise noted. The cells were resuspended in lysis buffer (50 mM Tris-HCl, pH 8.0, 250 mM sucrose) including 1 mM ethylenediaminetetraacetic acid (EDTA) and the complete protease inhibitor cocktail (Roche Diagnostics) at a ratio of 3 ml buffer per 1 g cell paste. The cells were lysed by dounce homogenizer. The cell debris was removed by centrifugation at 1,000×g for 20 min, and the supernatant was centrifuged at 100,000×g for 1 hour. The resulting pellet was rinsed three times by filling ultracentrifuge tubes to the top with ice cold PBS before decanting. […]
To 1 μL of compounds dissolved in 100% DMSO and spotted at the bottom of each well, 5 μL of 0.04% bovine serum albumin (BSA) (fatty acid free, Sigma Aldrich) was added and the mixture was incubated at room temperature for 20 minutes. […] Plates were centrifuged at 2,000×g for 1 min in an Allegra 6R Centrifuge (Beckman Coulter) and then were sealed again with fresh covers before reading in a 1450 Microbeta Wallac Trilux Scintillation Counter (Perkin Elmer). DGAT2 activity was measured by quantifying the generated product [^14C]tridecanoylglycerol in the upper organic phase. […]

Another experiment has as its target DGAT2 (Homo sapiens (Human), UniProt Q96PD7). Briefly: IC50 determination for DGAT2 inhibitors in human hepatocytes ([1,3-14C]-glycerol incorporation into lipids). The experiment is classed as cell-based. To be noted: average IC50, cryopreserved human hepatocytes, selective DGAT1 inhibitor (3 μM) in all wells, 3 hour incubation with [1,3-14C]-glycerol, read-out: IC50 (nM) in primary human hepatocyte. The protocol:
For evaluation of the effects of DGAT2 inhibitors in a cell-based setting, cryopreserved human hepatocytes (Lot QOC, Celsis, Chicago, Ill.) were thawed and plated onto type I collagen-coated plates according to the manufacturer's instructions. After 24 hours overnight recovery period, the cells were overlayed with media containing 250 μg/ml Matrigel (BD Biosciences, San Jose, Calif.). The following day, media was aspirated and replaced with serum-free Williams Media E (Life Technologies, Grand Island, N.Y.) containing 400 μM sodium dodecanoate (Sigma-Aldrich, St. Louis, Mo.). Forty minutes later, DGAT2 inhibitors (prepared as 100× stocks in 25% DMSO, 75% Williams' Media E) were added to the desired final concentration. […] After a 20 minute preincubation, 0.2 μCi [1,3-^14C]-glycerol (American Radio Chemicals, St. Louis, Mo.) was added to each well and mixed by gentle pipetting prior to a 3 hour incubation. At this point, media was aspirated and the cells were lysed in isopropyl alcohol:tetrahydrofuran (9:1) prior to centrifugation at 3000 rpm for 5 minutes. […] The half maximal inhibitory concentrations (IC50 values) were determined using Graph Pad Prism (GraphPad Software, Inc., La Jolla, Calif.). […]

For `O=C([C@@H]1CCCN(c2ccc3nc(C4(n5cc(Cl)cn5)CC4)[nH]c3n2)C1)N1CCCC1` [Example 109-A, (R)-(1-(2-(1-(4-Chloro-1H-pyrazol-1-yl)cyclopropyl)-3H-imidazo[4,5-b]pyridin-5-yl)piperidin-3-yl)(pyrrolidin-1-yl)methanone], the IC50 on Human DGAT2 (hDGAT2) (background for complete inhibition of DGAT2 obtained with 50 μM (1R,2R)-2-({3′-Fluoro-4′-[(6-fluoro-1,3-benzothiazol-2-yl)amino]-1,1′-biphenyl-4-yl}carbonyl)cyclopentanecarboxylic acid, read-out: DGAT2 IC50) was found to be 13.8 nM; at DGAT2, 2.1 nM.

Consider `O=C([C@@H]1CCCN(c2ccc3nc(C4(n5cc(Cl)cn5)CC4)[nH]c3n2)C1)N1CCCC1` [Example 109-B, (R)-(1-(2-(1-(4-Chloro-1H-pyrazol-1-yl)cyclopropyl)-3H-imidazo[4,5-b]pyridin-5-yl)piperidin-3-yl)(pyrrolidin-1-yl)methanone methanesulfonate], for which the half-maximal inhibitory concentration (IC50) was determined as 20.2 nM on Human DGAT2 (hDGAT2) (background for complete inhibition of DGAT2 obtained with 50 μM (1R,2R)-2-({3′-Fluoro-4′-[(6-fluoro-1,3-benzothiazol-2-yl)amino]-1,1′-biphenyl-4-yl}carbonyl)cyclopentanecarboxylic acid, methanesulfonate, read-out: DGAT2 IC50); 15 nM at Human DGAT2 (hDGAT2) (background for complete inhibition of DGAT2 obtained with Example 196-A instead of the cyclopentanecarboxylic acid reference, read-out: DGAT2 IC50 (nM), values in the parentheses); 5.5 nM at DGAT2 (methanesulfonate).
